Literature values in patent US20200000816A1, “COMPOUND HAVING SOMATOSTATIN RECEPTOR AGONISTIC ACTIVITY AND PHARMACEUTICAL USE THEREOF” (ONO PHARMACEUTICAL CO., LTD., priority 2017, published 2020).

Chains of the proteins cited; added tags and fusions are not shown.
UniProt P30874, whole entry, species assumed: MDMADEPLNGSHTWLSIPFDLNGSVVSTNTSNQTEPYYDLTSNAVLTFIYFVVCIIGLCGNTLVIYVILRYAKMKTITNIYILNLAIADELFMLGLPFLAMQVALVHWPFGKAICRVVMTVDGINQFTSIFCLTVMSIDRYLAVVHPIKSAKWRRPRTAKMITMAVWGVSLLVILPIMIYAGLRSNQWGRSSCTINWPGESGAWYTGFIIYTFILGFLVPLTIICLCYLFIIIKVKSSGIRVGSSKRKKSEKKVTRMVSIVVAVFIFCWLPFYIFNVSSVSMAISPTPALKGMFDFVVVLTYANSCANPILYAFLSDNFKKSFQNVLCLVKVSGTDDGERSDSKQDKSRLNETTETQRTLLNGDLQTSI
UniProt P35346, whole entry, species assumed: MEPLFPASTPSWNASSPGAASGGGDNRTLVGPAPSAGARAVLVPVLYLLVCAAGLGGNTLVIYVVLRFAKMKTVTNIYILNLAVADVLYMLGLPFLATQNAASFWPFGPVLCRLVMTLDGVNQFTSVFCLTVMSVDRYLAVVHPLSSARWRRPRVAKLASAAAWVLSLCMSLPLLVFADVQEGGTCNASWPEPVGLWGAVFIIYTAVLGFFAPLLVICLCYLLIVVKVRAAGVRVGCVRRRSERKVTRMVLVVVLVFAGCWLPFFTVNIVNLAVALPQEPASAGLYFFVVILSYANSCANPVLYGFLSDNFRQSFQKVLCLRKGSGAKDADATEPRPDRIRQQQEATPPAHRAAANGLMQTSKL
UniProt P30872, whole entry, species assumed: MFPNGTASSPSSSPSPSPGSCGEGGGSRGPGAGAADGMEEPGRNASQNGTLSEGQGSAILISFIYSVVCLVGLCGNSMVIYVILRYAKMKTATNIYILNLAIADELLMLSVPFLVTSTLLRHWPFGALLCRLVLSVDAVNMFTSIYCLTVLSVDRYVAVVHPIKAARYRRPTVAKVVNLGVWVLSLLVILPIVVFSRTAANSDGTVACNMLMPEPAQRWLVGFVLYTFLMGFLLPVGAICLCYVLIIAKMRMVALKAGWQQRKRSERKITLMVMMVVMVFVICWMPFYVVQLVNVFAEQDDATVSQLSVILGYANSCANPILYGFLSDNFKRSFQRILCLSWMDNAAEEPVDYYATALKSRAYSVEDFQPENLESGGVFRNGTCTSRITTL
UniProt P31391, whole entry, species assumed: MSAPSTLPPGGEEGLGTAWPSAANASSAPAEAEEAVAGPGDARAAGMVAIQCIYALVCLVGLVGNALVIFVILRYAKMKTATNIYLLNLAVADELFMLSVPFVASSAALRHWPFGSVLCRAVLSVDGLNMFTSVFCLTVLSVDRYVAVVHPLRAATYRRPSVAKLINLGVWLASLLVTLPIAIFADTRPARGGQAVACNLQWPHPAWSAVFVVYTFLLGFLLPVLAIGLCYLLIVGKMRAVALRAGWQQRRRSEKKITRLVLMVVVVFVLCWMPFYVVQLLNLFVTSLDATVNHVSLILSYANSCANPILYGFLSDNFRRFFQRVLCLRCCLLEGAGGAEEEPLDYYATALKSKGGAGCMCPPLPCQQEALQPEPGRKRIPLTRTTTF
UniProt P32745, whole entry, species assumed: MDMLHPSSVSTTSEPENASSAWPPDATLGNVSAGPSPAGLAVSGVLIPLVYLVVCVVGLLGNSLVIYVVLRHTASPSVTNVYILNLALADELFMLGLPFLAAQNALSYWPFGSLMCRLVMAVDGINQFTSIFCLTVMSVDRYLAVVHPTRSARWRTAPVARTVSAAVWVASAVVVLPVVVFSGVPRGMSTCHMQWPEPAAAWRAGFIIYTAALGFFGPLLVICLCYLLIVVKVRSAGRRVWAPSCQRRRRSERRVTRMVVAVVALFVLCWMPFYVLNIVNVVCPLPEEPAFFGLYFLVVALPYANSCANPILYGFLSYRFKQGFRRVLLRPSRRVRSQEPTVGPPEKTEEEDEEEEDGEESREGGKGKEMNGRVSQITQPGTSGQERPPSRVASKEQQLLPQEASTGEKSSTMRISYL

How the values were obtained:
Conditions in all cases: reported in background art; cited from earlier work
[1] = target: somatostatin receptor subtype 2 (SSTR2) (Homo sapiens, UniProt P30874)
[2] = target: somatostatin receptor subtype 5 (SSTR5) (Homo sapiens, UniProt P35346)
[3] = target: somatostatin receptor subtype 1 (SSTR1) (Homo sapiens, UniProt P30872)
[4] = target: somatostatin receptor subtype 4 (SSTR4) (Homo sapiens, UniProt P31391)
[5] = target: somatostatin receptor subtype 3 (SSTR3) (Homo sapiens, UniProt P32745)

For octreotide acetate, which “binding affinity to SSTR2” value [1] is on record?
Its value is “high affinity”.

What about the “binding affinity to SSTR5” value [2] of the same substance?
Its value is “moderate affinity”.

And the “binding to SSTR1” value [3]?
Its value is “do not bind”.

What about the “binding to SSTR4” value [4] of the same substance?
Its value is “do not bind”.

What about the “binding affinity to SSTR3” value [5] of the same substance?
Its value is “moderate affinity”.
